Results as given in patent US6664231B1, “Anti-fungal peptides” (priority 1993, dated 2003).

What was measured:
[1] = system: C. albicans (CA-1, Strain SLU-1); test: Radial diffusion assay; format: cell-based, Candida albicans; conditions: pmoles of peptide added to well to achieve a 30 mm^2 zone, PROBIT analysis, crude or purified (P′) peptide
Protocol: In the radial diffusion assay procedures, the CA-1 cultures and peptide solutions were prepared as in the broth assay procedure described above. Ten mL of molten underlayer agarose comprising 3% Sabouraud Dextrose broth, 1% agarose (Pharmacia, Piscataway, N.J.), 0.02% Tween 20, and 10 mM sodium phosphate at pH 7.4, was added to polystyrene tubes and maintained in a 56° C. water bath until the addition of yeast. Tubes were cooled to approximately 45° C., yeast were added to give a final concentration of 1×10^6 CFU/mL, and the tubes were mixed again by inverting. The contents were poured into level square petri dishes and distributed evenly. […] A series of wells were punched into the hardened agarose using a sterile 3 mm punch attached to a vacuum apparatus.
Peptides to be assayed were 2-fold serially diluted in Dulbecco's PBS (D-PBS) starting from a concentration of approximately 1 mg/mL. Five μL of each dilution were added to each well and the plates were incubated at 37° C. for 3 hours. An overlayer of 10 mL of molten agarose comprising 6% Sabouraud Dextrose broth, 1% agarose, and 10 mM sodium phosphate, pH 7.4, (at approximately 45° C.) was then added and plates were incubated overnight at 37° C. Following this overnight incubation, a dilute Coomassie solution was poured into the plates and allowed to stain for 24 hours.
Clear zones of growth inhibition around each well were measured with calipers. The actual area of growth inhibition (mm^2) was calculated by subtracting the area of the well. Table 1 below sets out the results of the radial diffusion assays for tested peptides in terms of the number of picomoles (pmol) of peptide required to establish a 30 mm^2 area of growth inhibition calculated by PROBIT analysis (e.g., calculated from regression of the linear portion of log-concentration dose-response curve, log pmol/well vs. net area of inhibition).

Candida glabrata = test: Radial diffusion assay, Candida species (Table 2); format: cell-based
Protocol: (§1) The anti-fungal activity of Domain III derived peptides was also evaluated in vitro against a variety of fungal species, including Candida glabrata, Candida krusei, Candida lusitaniae, Candida parapsilosis, and Candida tropicalis. For these experiments, one colony of each of the above-listed Candida strains was picked from a Sabouraud's dextrose agar (SDA) plate and inoculated into 5 mL of Sabouraud's dextrose broth (SDB, 2% dextrose and 1% neopeptone) or, for C. krusei, Yeast Malt broth (YM, Becton Dickenson, Cockeysville, Md., cat no. BL 11405) in 12 mL polyproplyene snap-cap tubes. The tube cultures were incubated overnight with shaking at 37° C.
(§2) Cultures were harvested when the OD570 of a 1:10 dilution was greater than or equal to the following values: 0.083 for Candida glabrata, 0.154 for Candida krusei, 0.117 for Candida lusitaniae, 0.076 for Candida parapsilosis, and 0.192 for Candida tropicalis. Cells were centrifuged for 7 minutes in an Eppendorf microfuge at 3,000 rpm (about 1,500 g). The cell pellet was resuspended in 1 mL PBS and approximately 1×10^7 cells in about 0.5 mL were added to 10 mL of cooled underlay agar (3% SBD, 1% agarose, 0.02% Tween 20, 10 mM sodium phosphate buffer, pH 7.4 at about 45° C.). The suspension was poured into square petri plates, allowed to solidify, and wells cut as described above.
(§3) Peptides were two-fold serially diluted with D-PBS from about 20 μL of a starting concentration of approximately 1 mg/mL. Five μL of peptide dilution were added per well and allowed to diffuse for at least about 30 minutes into the agar at […] (to allow complete diffusion). Then 10 mL of molten overlayer agarose (6% SDB, 1% agarose, 10 mM sodium phosphate buffer, pH 7.4 at about 45° C.) were added and the plates were incubated inverted at […] overnight. Plates were stained with a dilute Coomassie solution, inhibition zones were measured with calipers and net areas were calculated, then converted to pmole values by PROBIT analysis.

Candida krusei = test: Radial diffusion assay, Candida species (Table 2); format: cell-based
Protocol: as §1, §2, §3

Candida lusitaniae = test: Radial diffusion assay, Candida species (Table 2); format: cell-based
Protocol: as §1, §2, §3

Candida parapsilosis = test: Radial diffusion assay, Candida species (Table 2); format: cell-based
Protocol: as §1, §2, §3

Candida tropicalis = test: Radial diffusion assay, Candida species (Table 2); format: cell-based
Protocol: as §1, §2, §3

[2] = system: mouse RAW 264.7 cells incubated with E. coli O113 LPS; conditions: RAW 264.7 cells with E. coli O113 LPS; concentration reversing LPS growth inhibition by 50%
Protocol: (§4) An in vitro LPS neutralization screening assay for evaluation of Domain III derived peptides was developed (as described in co-owned and co-pending U.S. patent application Ser. No. 08/306,473) which provides both a measure of efficacy of each peptide (EC50) and of the toxicity/growth inhibition of each peptide (IC50).
(§5) The cells were counted and their concentration adjusted to 2×10^5 cells/mL and 100 μL aliquots were added to each well of a 96-well microtitre plate. […] This incubation was performed in the absence or presence of peptides in varying concentrations between 25 ng/mL and 50 μg/mL. […] Cell proliferation was quantitatively measured by the addition of 1 μCi/well [^3H]-thymidine 5 hours after the time of initiation of the assay. After the 15-hour incubation, labeled cells were harvested onto glass fiber filters with a cell harvester (Inotech Biosystems, INB-384, Sample Processing and Filter Counting System, Lansing, Mich.).

mouse RAW 264.7 cells = conditions: RAW 264.7 cell growth inhibited by 50%
Protocol: as §4, §5

Candida albicans = test: Radial diffusion assay, Candida species (Table 2); format: cell-based; conditions: higher effective concentration of agarose than Table 1
in vitro = in vitro ADME, rat or human serum; conditions: half-life of peptide in serum as detected by HPLC analysis
Protocol: (§6) For these serum stability experiments, peptides were prepared by solid phase peptide sythesis and purified to 94% or greater purity as described in Example 1. Blood was collected from metaphane anesthesized rats by aortic bleed into Vacutainer™ tubes and allowed to clot at room temperature for approximately 30 minutes, then centrifuged at 3000 rpm (about 1000×g) for 10 minutes at room temperature and the serum aspirated. In addition, frozen human serum (North American Biologics, Inc., Miami, Fla., cat. no. 2140, lot no. 94115) was thawed at room temperature and filtered through a 0.45 μm membrane before use.
(§7) A 1 mg/mL solution of an exemplary XMP peptide to be tested was added to an equal volume of either rat or human serum described above and maintained at 37° C. At 0, 1, 2, and 4 hours, 100 μL were removed and processed by solid phase extraction for HPLC analysis as follows. Serum samples were prepared for HPLC using C-18 Sep-Pak cartridges (1 mL cartridge with 100 mg of sorbent, Waters Corp., Milford, Mass.). One hundred μL of serum sample were added to an equal volume of 1% TFA and mixed for 30 seconds on a Vortex mixer. The sample was then applied to a C-18 Sep-Pak cartridge that had been conditioned by washing with 1 mL of methanol followed by 1 mL Milli-Q water. Weakly reed components were eluted by washing with 1 mL of 0. 1% TFA. The bound peptide was eluted with two volumes of 250 μL 80% acetonitrile/0.065% TFA.
The material eluted from the Sep-Pak cartridge was analyzed on a Michrom Ultaafast Microprotein Analyzer equipped with a 150 mm×1 mm, 5μ particle, 300 Å pore C-8 Zorbax column. The column oven was set to 40° C., the flow rate was 100 μL/minute, and injection volumes were typically 5-10 μL. HPLC was performed using 5% acetonitrile/0.1% TFA in water as mobile phase A, and 80% acetonitrile/0.065% TFA as mobile phase B. The eluate was monitored spectiophotometrically at 214 nm. Peptide standards were dissolved in mobile phase A at 0. 1 mg/mL. The gradient was 25-35% B/10 minutes followed by a 5 minute wash step of 100% B and reequilibration at 25% B for 10 minutes.

[3] = system: Candida albicans SLU-1 strain; test: Serum stability, anti-fungal activity after serum incubation by radial diffusion bioassay; format: in vitro ADME, rat or human serum
Protocol: as §6, §7
The peptides identified and purified after serum incubation as described above were subjected to N-terminal peptide sequencing performed on an Applied Biosystems Model 477A/120A sequencer and to electrospray ionization mass spectrometry (ESI/MS) performed using a VG Biotech Bio-Q Mass Spectrometer. In addition, the peptides identified and purified after serum incubation as described above were also tested for their anti-fungal activity in a radial diffusion bioassay with Candida albicans SLU-1 strain as described in Example 2.

| SMILES | C. albicans pmol/30 mm^2 zone [1] | C. albicans pmol/30 mm^2 zone ([1]; listed as XMP.286P′) [pmol/30 mm^2 zone] | Anti-fungal activity: pmol/30 mm^2 zone, Candida glabrata (Candida glabrata) | Anti-fungal activity: pmol/30 mm^2 zone, Candida krusei (Candida krusei) | Anti-fungal activity: pmol/30 mm^2 zone, Candida lusitaniae (Candida lusitaniae) | Anti-fungal activity: pmol/30 mm^2 zone, Candida parapsilosis (Candida parapsilosis) | Anti-fungal activity: pmol/30 mm^2 zone, Candida tropicalis (Candida tropicalis) | In Vitro LPS Neutralization EC50 [2] [µg/mL] | IC50 (toxicity/growth inhibition of peptide) (mouse RAW 264.7 cells) | C. albicans pmol/30 mm^2 zone ([1]; listed as XMP.332P′) [pmol/30 mm^2 zone] | Anti-fungal activity: pmol/30 mm^2 zone, Candida albicans (Candida albicans) | HPLC Peptide in Serum t ½ (hr.) (in vitro) | Activity in Serum t ½ (hr.) [3] | decrease in activity during serum incubation [3] |
| --- | --- | --- | --- | --- | --- | --- | --- | --- | --- | --- | --- | --- | --- | --- |
| CC[C@H](C)[C@H](NC(=O)[C@H](CC(C)C)NC(=O)[C@H](Cc1c[nH]c2ccccc12)NC(=O)[C@H](CCCCN)NC(=O)[C@@H](NC(=O)[C@@H](N)CCCCN)C(C)C)C(=O)N[C@@H](CCC(N)=O)C(=O)N[C@@H](CC(C)C)C(=O)N[C@@H](Cc1ccccc1)C(=O)N[C@@H](Cc1c[nH]cn1)C(=O)N[C@@H](CCCCN)C(=O)N[C@@H](CCCCN)C(N)=O [XMP.286] | 1,216 pmol/30 mm^2 zone | 253 | 1,843 pmol/30 mm^2 zone | 1,558 pmol/30 mm^2 zone | 1,235 pmol/30 mm^2 zone | 1,134 pmol/30 mm^2 zone | 606 pmol/30 mm^2 zone | 4.68 ± 0.26 | NA (NA for IC50 means no evidence of decreased RAW cell growth at up to 50 μg/ml) | – | – | – | – | – |
| CC[C@@H](C)[C@@H](NC(=O)[C@@H](CCC(N)=O)NC(=O)[C@@H](CC(C)C)NC(=O)[C@@H](CCCCN)NC(=O)[C@H](N)CCCCN)C(=O)N[C@H](CC(C)C)C(=O)N[C@H](Cc1c[nH]c2ccccc12)C(=O)N[C@H](CCCCN)C(=O)N[C@H](CCCCN)C(N)=O [XMP.332] | 356 pmol/30 mm^2 zone | – | 2,190 pmol/30 mm^2 zone | 2,802 pmol/30 mm^2 zone | <219 pmol/30 mm^2 zone | 170 pmol/30 mm^2 zone | 866 pmol/30 mm^2 zone | 5.65 ± 0.16 | NA (NA for IC50 means no evidence of decreased RAW cell growth at up to 50 μg/ml) | 338 | 3,931 pmol/30 mm^2 zone | indefinite | indefinite | did not show any decrease |
| CC[C@H](C)[C@H](NC(=O)[C@H](CC(C)C)NC(=O)[C@H](Cc1c[nH]c2ccccc12)NC(=O)[C@H](CCCCN)NC(=O)[C@H](N)CCCCN)C(=O)N[C@@H](CCC(N)=O)C(=O)N[C@@H](CC(C)C)C(=O)N[C@@H](CCCCN)C(=O)N[C@@H](CCCCN)C(N)=O [XMP.333] | 673 pmol/30 mm^2 zone | – | 4,040 pmol/30 mm^2 zone | 4,101 pmol/30 mm^2 zone | 174 pmol/30 mm^2 zone | 209 pmol/30 mm^2 zone | 2,894 pmol/30 mm^2 zone | – | NA (NA for IC50 means no evidence of decreased RAW cell growth at up to 50 μg/ml) | – | 5,191 pmol/30 mm^2 zone | – | – | – |
